Source: article PMC4237944, “SIRT1 overexpression ameliorates a mouse model of SOD1-linked amyotrophic lateral sclerosis via HSF1/HSP70i chaperone system” (2014)

Biological target: human Cu/Zn-superoxide dismutase (SOD1) with the ALS-linked mutation G93A (human)
Assay: immunoblot of an SDS-resistant dimer after SDS-PAGE

For “human Cu/Zn-superoxide dismutase (SOD1) with the ALS-linked mutation G93A (natural protein)”, the stoichiometry N was 2.
